Our source for the inhibition values is PubChem BioAssay AID651560 (Sanford-Burnham Center for Chemical Genomics, 2012).

The chains behind the UniProt entries cited, without tags or fusion partners.
UniProt P24666, whole entry: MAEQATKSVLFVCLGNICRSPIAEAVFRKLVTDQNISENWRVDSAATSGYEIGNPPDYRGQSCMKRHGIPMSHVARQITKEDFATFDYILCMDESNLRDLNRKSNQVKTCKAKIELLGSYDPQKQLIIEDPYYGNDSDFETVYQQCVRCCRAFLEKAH

The entries are a selection whose mix differs from that of the whole data set. The source made the active and inactive calls.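 How the source made its calls: active means compounds that cut the enzyme signal by at least half of the control window in the single-dose screen; inactive means the rest.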

Broadly, the inhibition is the change of the read-out against control, counted positive when it falls.

This assay addresses Low molecular weight phosphotyrosine protein phosphatase (Homo sapiens) (UniProt P24666). The assay is described as follows: inhibition of human LMPTP-A enzyme – biochemical, fluorescence intensity, uHTS, primary screen (AID 651560).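 Further: plate controls were DMSO wells with enzyme plus substrate for no effect and substrate without enzyme for full effect.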 As to conditions: recombinant LMPTP-A, OMFP fluorogenic substrate, at 20 µM, hits give high values. In outline: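 Test system – LMPTP-A phosphatase enzyme · Quantity – 0.625 nM LMPTP-A final · Reagent – OMFP substrate, 400 µM final · Dosing – one test concentration per compound, 20 µM, with 3% DMSO overall · Timing – 50 min enzyme reaction at room temperature, protected from light · Detection – fluorescence intensity · Controls – substrate-only low control, DMSO enzyme-plus-substrate high control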
Regarding `CCC(=O)N(c1ccccc1)C1(COC)CCN(CCn2nnn(CC)c2=O)CC1`, the inhibition is inactive: 0.31%.
As for `CCC(=O)N(c1ccccc1)C1(COC)CCN(CCc2cccs2)CC1`, the figure is inactive: -1.04%.
